The text below walks through data of ChEMBL document CHEMBL4477204, “Tetrahydroisoquinoline-Derived Urea and 2,5-Diketopiperazine Derivatives as Selective Antagonists of the Transient Receptor Potential Melastatin 8 (TRPM8) Channel Receptor and Antiprostate Cancer Agents” (J Med Chem, 2016).

Amino acid sequences for entries named in this document (tags omitted).
UniProt Q8R455, whole entry, looked up: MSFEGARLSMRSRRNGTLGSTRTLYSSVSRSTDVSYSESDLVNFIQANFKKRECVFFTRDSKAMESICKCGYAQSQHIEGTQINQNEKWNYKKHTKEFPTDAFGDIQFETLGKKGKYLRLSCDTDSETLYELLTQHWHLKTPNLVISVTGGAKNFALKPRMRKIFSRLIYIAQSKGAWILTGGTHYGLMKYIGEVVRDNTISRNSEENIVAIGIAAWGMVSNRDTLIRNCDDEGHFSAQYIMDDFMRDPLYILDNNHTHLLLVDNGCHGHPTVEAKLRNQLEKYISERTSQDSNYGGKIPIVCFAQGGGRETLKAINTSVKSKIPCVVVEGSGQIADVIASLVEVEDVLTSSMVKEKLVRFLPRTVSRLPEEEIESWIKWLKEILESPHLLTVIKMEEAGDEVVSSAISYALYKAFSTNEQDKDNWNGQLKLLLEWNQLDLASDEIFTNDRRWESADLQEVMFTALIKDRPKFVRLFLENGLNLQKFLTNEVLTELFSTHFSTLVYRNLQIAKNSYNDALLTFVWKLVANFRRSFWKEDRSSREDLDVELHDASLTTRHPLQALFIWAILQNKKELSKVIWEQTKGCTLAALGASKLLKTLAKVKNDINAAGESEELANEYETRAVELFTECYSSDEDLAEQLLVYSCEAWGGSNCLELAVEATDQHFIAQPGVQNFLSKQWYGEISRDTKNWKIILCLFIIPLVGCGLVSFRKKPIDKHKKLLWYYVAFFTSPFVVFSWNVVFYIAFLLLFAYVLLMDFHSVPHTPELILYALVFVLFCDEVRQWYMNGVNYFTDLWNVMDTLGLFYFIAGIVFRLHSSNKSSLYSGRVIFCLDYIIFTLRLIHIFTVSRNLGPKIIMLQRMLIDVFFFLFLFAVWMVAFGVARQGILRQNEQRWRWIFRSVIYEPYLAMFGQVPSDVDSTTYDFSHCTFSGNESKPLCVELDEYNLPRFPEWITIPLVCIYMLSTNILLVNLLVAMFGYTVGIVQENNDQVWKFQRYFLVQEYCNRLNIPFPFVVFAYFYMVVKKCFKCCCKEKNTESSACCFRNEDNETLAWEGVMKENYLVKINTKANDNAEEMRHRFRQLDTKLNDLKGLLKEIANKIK

The structures appear in SMILES notation. The source made the active and inactive calls. The calls are words filed in the database; no cut-off is given here. A value given as a limit tells only on which side of the number the result lay.

For assay [1], the target named is Transient receptor potential cation channel subfamily M member 8 (Rattus norvegicus) (UniProt Q8R455). Put plainly: Agonist activity at recombinant rat TRPM8 expressed in HEK293 cells assessed as increase in intracellular calcium accumulation by Fluo-4-AM probe-based spectrofluorimetric assay relative to ionomycin. The format is cell-based. An outline of the steps: (§1)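 HEK-293 cells stably expressing rat TRPM8 were loaded with Fluo-4-AM (4 µM, 0.02% Pluronic F-127) for 1 h at 25 °C in serum-free EMEM. They were then washed and suspended in Tyrode's buffer pH 7.4 in a stirred cuvette. [Ca2+]i fluorescence (ex 488/em 516 nm) was read before and after compound addition. Wild-type HEK-293 response was subtracted. Efficacy is expressed versus 4 µM ionomycin; EC50 comes from a sigmoidal fit.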
A general note: A change in cytosolic calcium serves as a functional read-out for many receptors and channels.

The target is the same in assay [2]. Briefly: Agonist activity at recombinant rat TRPM8 expressed in HEK293 cells assessed as increase in intracellular calcium accumulation up to 10 uM by Fluo-4-AM probe-based spectrofluorimetric assay. The format is cell-based. In outline:
as §1

As to `COc1ccc(CCNC(=O)N2CCc3cc(OC)c(OC)cc3C2c2cccc([N+](=O)[O-])c2)cc1OC` (stereo not given), the Activity in assay [1] was < 10%. Moreover, the result in assay [2] was inactive.

`COc1cc(/C=C2\NC(=O)[C@@H]3Cc4c(OC)c(C)c(OC)c(OC)c4[C@@H](c4ccccc4)N3C2=O)c(OC)c(C)c1OC`: the Activity in assay [1] is < 10%. For the same compound, the result in assay [2] was inactive.

For the compound `COc1ccc(CCNC(=O)N2CCc3cc(OC)c(OC)cc3C2c2ccc(Cl)cc2)cc1OC` (stereo not given), the Activity in assay [1] was < 10%. For the same compound, the result in assay [2] was inactive.

Consider `COc1cc2c(cc1OC)C(c1cccc(-c3cccc([N+](=O)[O-])c3)n1)=NCC2`, for which the Activity in assay [1] was < 10%. In assay [2], the outcome was inactive.

Regarding `CCC1c2cc(OC)c(OC)cc2CCN1C(=O)NCCc1ccc(OC)c(OC)c1` (stereo not given), the Activity in assay [1] is < 10%. The result in assay [2] was inactive.

On to `COc1ccc(/C=C2\NC(=O)[C@@H]3Cc4cc(OC)c(OC)cc4[C@@H](c4cccc([N+](=O)[O-])c4)N3C2=O)cc1OC`, for which, in assay [1], the Activity is < 10%. For the same compound, the result in assay [2] was inactive.

Turning to `COc1ccc(/C=C2\NC(=O)[C@@H]3Cc4cc(OC)c(OC)cc4[C@@H](c4ccc(Br)cc4)N3C2=O)cc1OC`, the Activity in assay [1] is < 10%. Moreover, the outcome in assay [2] was inactive.

Regarding `COc1cc2c(cc1OC)[C@@H](c1ccc(C(F)(F)F)cc1)N(C(=O)N1CCc3cc(OC)c(OC)cc3[C@@H]1c1ccc(C(F)(F)F)cc1)CC2`, the Activity in assay [1] is < 10%. The result in assay [2] was inactive.

For `COc1ccc(CCNC(=O)N2CCc3cc(OC)c(OC)cc3C2c2ccccc2)cc1OC` (stereo not given), the Activity in assay [1] was < 10%. Also, the outcome in assay [2] was inactive.

`COc1cc2c(cc1OC)[C@@H](c1ccc(F)cc1)N(C(=O)N1CCc3cc(OC)c(OC)cc3[C@@H]1c1ccc(F)cc1)CC2`: the Activity in assay [1] is < 10%. In addition, the result in assay [2] was inactive.

`COc1ccc(/C=C2\NC(=O)[C@@H]3Cc4cc(OC)c(OC)cc4[C@@H](c4ccccc4Cl)N3C2=O)cc1OC`: in assay [1], the Activity was < 10%. In addition, the outcome in assay [2] was inactive.

With `COc1ccc(CCNC(=O)NCCc2ccc(OC)c(OC)c2)cc1OC`, the Activity in assay [1] is < 10%. The result in assay [2] was inactive.

Take `CCCC1c2cc(OC)c(OC)cc2CCN1C(=O)NCCc1ccc(OC)c(OC)c1` (stereo not given): the Activity in assay [1] is < 10%. In assay [2], the outcome was inactive.

For the compound `COc1ccc(CCNC(=O)N2CCc3cc(OC)c(OC)cc3C2c2ccc(Br)cc2)cc1OC` (stereo not given), the Activity in assay [1] was < 10%. Besides, in assay [2], the outcome was inactive.

As to `COc1cc2c(cc1OC)[C@@H](c1ccc(Oc3ccc([N+](=O)[O-])cc3)cc1)N(C(=O)N1CCc3cc(OC)c(OC)cc3[C@@H]1c1ccc(Oc3ccc([N+](=O)[O-])cc3)cc1)CC2`, the Activity in assay [1] is < 10%. The result in assay [2] was inactive.

Consider `COc1cc2c(cc1OC)C(c1ccc(C(F)(F)F)cc1)N(C(C)=O)CC2` (stereo not given), for which the Activity in assay [1] was < 10%. The outcome in assay [2] was inactive.

As for `COc1cc2c(cc1OC)[C@H](c1ccc3ccccc3c1)N(C(=O)N1CCc3cc(OC)c(OC)cc3[C@@H]1c1ccc3ccccc3c1)CC2` (racemic), the Activity in assay [1] was < 10%. For the same compound, the outcome in assay [2] was inactive.

In the case of `COc1cc2c(cc1OC)C(c1ccc([N+](=O)[O-])cc1[N+](=O)[O-])NCC2` (racemic), the Activity in assay [1] is < 10%. In addition, the result in assay [2] was inactive.

Consider `COc1cc2c(cc1OC)[C@H](c1ccc([N+](=O)[O-])cc1[N+](=O)[O-])N(C(=O)N1CCc3cc(OC)c(OC)cc3[C@@H]1c1ccc([N+](=O)[O-])cc1[N+](=O)[O-])CC2` (racemic), for which the Activity in assay [1] is < 10%. The outcome in assay [2] was inactive.

Take `CCC[C@H]1c2cc(OC)c(OC)cc2CCN1C(=O)N1CCc2cc(OC)c(OC)cc2[C@@H]1CCC` (racemic): in assay [1], the Activity was < 10%. For the same compound, the result in assay [2] was inactive.

As to `COc1cc2c(cc1OC)C(c1cccc(-c3cccc([N+](=O)[O-])c3)n1)NCC2` (racemic), the Activity in assay [1] was < 10%. Also, the result in assay [2] was inactive.

For `COc1cc2c(cc1OC)[C@H](c1ccc(Oc3ccc([N+](=O)[O-])cc3)cc1)N(C(=O)N1CCc3cc(OC)c(OC)cc3[C@@H]1c1ccc(Oc3ccc([N+](=O)[O-])cc3)cc1)CC2` (racemic), in assay [1], the Activity was < 10%. Moreover, in assay [2], the outcome was inactive.

For the compound `COc1cc2c(cc1OC)[C@H](c1ccc(C(F)(F)F)cc1)N(C(=O)N1CCc3cc(OC)c(OC)cc3[C@@H]1c1ccc(C(F)(F)F)cc1)CC2` (racemic), in assay [1], the Activity is < 10%. Also, in assay [2], the outcome was inactive.

Regarding `COc1ccc(OC)c(C[C@@H]2NC(=O)[C@@H]3Cc4c(OC)ccc(OC)c4[C@@H](/C=C/c4ccccc4)N3C2=O)c1` (racemic), the Activity in assay [1] was < 10%. The outcome in assay [2] was inactive.

On to `COc1cc2c(cc1OC)[C@H](c1ccc(Br)cc1)N(C(=O)N1CCc3cc(OC)c(OC)cc3[C@@H]1c1ccc(Br)cc1)CC2` (racemic), for which the Activity in assay [1] was < 10%. For the same compound, in assay [2], the result was inactive.

On to `COc1cc2c(cc1OC)[C@H](c1ccccc1Cl)N(C(=O)N1CCc3cc(OC)c(OC)cc3[C@@H]1c1ccccc1Cl)CC2` (racemic), for which, in assay [1], the Activity was < 10%. For the same compound, the result in assay [2] was inactive.

`COc1cc2c(cc1OC)[C@H](c1ccccc1)N(C(=O)N1CCc3cc(OC)c(OC)cc3[C@@H]1c1ccccc1)CC2` (racemic): in assay [1], the Activity was < 10%. Also, the result in assay [2] was inactive.

In the case of `COc1ccc(CCNC(=O)N2CCc3cc(OC)c(OC)cc3C2c2ccccc2Cl)cc1OC` (racemic), the Activity in assay [1] was < 10%. In addition, the result in assay [2] was inactive.

With `COc1cc2c(cc1OC)[C@H](c1cccc(-c3cccc([N+](=O)[O-])c3)n1)N(C(=O)N1CCc3cc(OC)c(OC)cc3[C@@H]1c1cccc(-c3cccc([N+](=O)[O-])c3)n1)CC2` (racemic), the Activity in assay [1] is < 10%. Further, the result in assay [2] was inactive.

In the case of `COc1cc2c(cc1OC)[C@H](c1cccc([N+](=O)[O-])c1)N(C(=O)N1CCc3cc(OC)c(OC)cc3[C@@H]1c1cccc([N+](=O)[O-])c1)CC2` (racemic), the Activity in assay [1] was < 10%. Also, in assay [2], the result was inactive.

`COc1cc(C[C@@H]2NC(=O)[C@H](Cc3cc(OC)c(OC)c(C)c3OC)NC2=O)c(OC)c(C)c1OC` (racemic): the outcome in assay [1] and in assay [2] was inactive.

In the case of `COc1cc2c(cc1OC)[C@H](c1ccc(F)cc1)N(C(=O)N1CCc3cc(OC)c(OC)cc3[C@@H]1c1ccc(F)cc1)CC2` (racemic), the Activity in assay [1] was < 10%. Moreover, the result in assay [2] was inactive.

As to `COc1c(C)c(OC)c(OC)c2c1C[C@H]1C(=O)N3[C@@H](Cc4c(OC)c(C)c(OC)c(OC)c4[C@@H]3/C=C/c3ccccc3)C(=O)N1[C@H]2/C=C/c1ccccc1` (racemic), the Activity in assay [1] was < 10%. Moreover, in assay [2], the result was inactive.

As for `COc1cc2c(cc1OC)[C@H](c1ccc(Cl)cc1)N(C(=O)N1CCc3cc(OC)c(OC)cc3[C@@H]1c1ccc(Cl)cc1)CC2` (racemic), in assay [1], the Activity was < 10%. Further, the outcome in assay [2] was inactive.

For `COc1cc2c(cc1OC)C(c1ccc(Cl)cc1)NCC2` (racemic), the Activity in assay [1] is < 10%. For the same compound, the result in assay [2] was inactive.
